According to article PMC2670953 (Journal of molecular biology, 2009):

Target: DNA polymerase II (Pol II) of E. coli (E. coli, UniProt P21189)
Test: SPR

B1: wild type E. coli β sliding clamp, N-terminally His6 and cAMP-dependent kinase motif tagged (natural protein)
chain: MKFTVEREHLLKPLQQVSGPLGGRPTLPILGNLLLQVADGTLSLTGTDLEMEMVARVALVQPHEPGATTVPARKFFDICRGLPEGAEIAVQLEGERMLVRSGRSRFSLSTLPAADFPNLDDWQSEVEFTLPQATMKRLIEATQFSMAHQDVRYYLNGMLFETEGEELRTVATDGHRLAVCSMPIGQSLPSHSVIVPRKGVIELMRMLDGGDNPLRVQIGSNNIRAHVGDFIFTSKLVDGRFPDYRRVLPKNPDKHLEAGCDLLKQAFARAAILSNEKFRGVRLYVSENQLKITANNPEQEEAEEILDVTYSGAEMEIGFNVSYVLDVLNALKCENVRMMLTDSVSSVQIEDAASQSAAYVVMPMRL
  Kd: 31.6 nM
  koff: 0.00119 s⁻¹
  kon: 37700 M⁻¹ s⁻¹
